Assay results reported in BindingDB's records for doi:10.1021/jm000541z (Abbott Laboratories, 2001).

Biological target: Alpha-1B adrenergic receptor (Mesocricetus auratus) (UniProt P18841)
Assay: Binding affinity to hamster alpha-1B adrenergic receptor

SMILES: COc1cccc2c1CC[C@H]1CN(CCn3c(=O)[nH]c4c(C)csc4c3=O)C[C@@H]21 [3-[2-(6-Methoxy-1,3,3a,4,5,9b-hexahydro-benzo[e]isoindol-2-yl)-ethyl]-7-methyl-1H-thieno[3,2-d]pyrimidine-2,4-dione]
- Ki: 1.28 nM
